Test: 3 month (105 day) study of monthly IM injections of ODE-Bn-TFV in formulation F3 in rats
Conditions: 3 monthly IM doses at 0, 30 and 60 days

SMILES: CCCCCCCCCCCCCCCCCCOCCOP(=O)(O)CO[C@H](C)Cn1cnc2c(N)ncnc21 [ODE-TFV]
- time therapeutic levels were maintained: 105 days

— US12594292B2, “Antiviral prodrugs, intermediate-and long-acting formulations and methods” (priority 2022, dated 2026)
